Patent publication US11866430B2, “Naphthyridinone compounds useful as T cell activators” (priority 2018, dated 2024)

Chains of the proteins cited; added tags and fusions are not shown. A line that says so, or that is headed by a name, gives the form on record, which may keep a tag or linker.
UniProt P23743, other isoform, or with tags, fused parts or gaps: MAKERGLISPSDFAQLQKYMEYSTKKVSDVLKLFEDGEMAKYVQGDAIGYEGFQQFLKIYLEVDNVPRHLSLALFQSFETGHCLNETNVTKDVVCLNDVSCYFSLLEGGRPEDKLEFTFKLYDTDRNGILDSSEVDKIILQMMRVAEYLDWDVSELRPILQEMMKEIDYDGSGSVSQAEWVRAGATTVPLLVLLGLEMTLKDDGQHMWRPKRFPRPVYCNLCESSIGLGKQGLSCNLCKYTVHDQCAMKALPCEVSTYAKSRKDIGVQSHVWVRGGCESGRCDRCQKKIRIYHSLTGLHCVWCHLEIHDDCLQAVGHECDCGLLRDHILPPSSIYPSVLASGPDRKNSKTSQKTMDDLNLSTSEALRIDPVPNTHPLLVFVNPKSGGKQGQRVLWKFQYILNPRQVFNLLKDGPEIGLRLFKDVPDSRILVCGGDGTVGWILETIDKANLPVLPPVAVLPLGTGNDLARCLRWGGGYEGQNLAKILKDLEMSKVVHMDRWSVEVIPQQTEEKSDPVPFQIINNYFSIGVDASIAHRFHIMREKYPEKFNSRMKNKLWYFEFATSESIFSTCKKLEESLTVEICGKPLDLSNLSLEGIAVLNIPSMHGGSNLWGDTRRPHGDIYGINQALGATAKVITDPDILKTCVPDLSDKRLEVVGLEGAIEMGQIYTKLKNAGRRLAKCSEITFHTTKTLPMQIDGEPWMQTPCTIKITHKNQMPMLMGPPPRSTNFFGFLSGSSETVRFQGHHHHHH

Assays:
[1] = biological target: T1, human DGKα (Homo sapiens (Human), UniProt P23743); assay: biochemical; assay type: biochemical
Description: (§1) The DGKα and DGKζ reactions were performed using either extruded liposome (DGKα and DGKζ LIPGLO assays) or detergent/lipid micelle substrate (DGKα and DGKζ assays). The reactions were carried out in 50 mM MOPS pH 7.5, 100 mM NaCl, 10 mM MgCl2, 1 μM CaCl2, and 1 mM DTT (assay buffer). The reactions using a detergent/lipid micelle substrate also contained 50 mM octyl B-D-glucopyranoside. […] The lipid substrate concentrations were […], 0.25 mM DAG, and 2.75 mM PC for the extruded liposome reactions.
(§2) The compound inhibition studies were carried out as follows: 50 nL droplets of each test compound (top concentration 10 mM with 11 point, 3-fold dilution series for each compound) solubilized in DMSO were transferred to wells of a white 1536 well plate (Corning 3725). A 5 mL enzyme/substrate solution at 2× final reaction concentration was prepared by combining 2.5 mL 4× enzyme solution (20 nM DGKα or DGKζ (prepared as described below) in assay buffer) and 2.5 mL of either 4× liposome or 4× detergent/lipid micelle solution (compositions described below) and incubated at room temperature for 10 minutes. Next, 1 μL 2× enzyme/substrate solution was added to wells containing the test compound and reactions were initiated with the addition of 1 μL 300 uM ATP. […] Luminescence was recorded using an EnVision microplate reader. […] The compounds were evaluated at 11 concentrations to determine IC50. […]

[2] = test system: pre-activated CD4 T cells and Raji cells; assay: Raji CD4 T Cell IL2 Assay; assay type: cell-based; conditions: Homo sapiens, read-out: RAJI IC50
[3] = test system: OT-1 antigen-specific CD8+ T cells with MC38 tumor cells; assay: Murine Cytotoxic T Lymphocyte Assay (IFN-γ); assay type: cell-based; conditions: Mus musculus, MC-38, read-out: msCTL INF-γ IC50, murine CTL IFN-γ (table title reads INF-γ Whole Blood Normalized Agonist EC50)
Text: An antigen-specific cytolytic T-cell (CTL) assay was developed to evaluate functionally the ability of DGKα and DGKζ inhibitors to enhance effector T cell mediated tumor cell killing activity. CD8+ T-cells isolated from the OT-1 transgenic mouse recognize antigen presenting cells, MC38, that present the ovalbumin derived peptide […]. Recognition of the cognate antigen initiates the cytolytic activity of the OT-1 antigen-specific CD8+ T cells.
Functional CTL cells were generated as follows: OT-1 splenocytes from 8-12 week old mice were isolated and expanded in the presence of the […] peptide at 1 μg/mL and mIL2 at 10 U/mL. After three days, fresh media with mIL2 U/mL was added. On day 5 of the expansion, the CD8+ T cells were isolated and ready for use. Activated CTL cells may be stored frozen for 6 months. […] The cells were washed (3×) with fresh media to remove excess peptide. Finally, CTL cells that were pretreated with DGK inhibitors for 1 hour in a 96-well U bottom plate were combined with the antigen loaded MC38 tumor cells at a 1:10 ratio. The cells were then spun at 700 rpm for 5 min and placed in an incubator overnight at 37° C. After 24 hours, the supernatant was collected for analysis of IFN-γ cytokine levels by AlphaLisa purchased from Perkin Elmer.

[4] = biological target: T1, human DGKα; assay: DGKα LIPGLO assay (extruded liposome substrate); assay type: biochemical
Description: as §1, §2

[5] = test system: naïve human CD8 T cells; assay: cells; conditions: T-cell, read-out: HuCD8 INFG Normalized EC50, anti-CD3 plus anti-CD28 as baseline, 3 μM Example 40 co-stimulation as 100% activation
Description: Frozen naïve human CD8 T cells were thawed in ATM-V media, incubated for 2 h in 37° C., and counted. The 384-well tissue culture plate was coated overnight at 4° C. with 20 μl anti-human CD3 at 0.05 μg/mL in PBS, which was removed off the plate before 40,000 cells per 40 microliters CD8 T cells with 0.1 μg/mL soluble anti-human CD28 were added to each well. The compounds were transferred using an Echo liquid handler to the cell plate immediately after the cells were plated. After 20 h incubation at 37° C. incubator, 3 microliters per well supernatants transferred into a new 384-well white assay plate for cytokine measurement.
Interferon-γ (IFN-γ) was quantitated using the AlphaLISA kit (Cat #AL217) as described by the manufacturer manual (Perkin Elmer). The counts from each well were converted to IFN-γ concentration […].

[6] = test system: Jurkat AP1-luciferase Reporter; assay: DGK AP1-Reporter Assay; assay type: cell-based; conditions: Homo sapiens, read-out: API-Luciferase Reporter IC50, Table 3
Description: The Jurkat AP1-luciferase Reporter was generated using the Cignal Lenti AP1 Reporter (luc) Kit from SABiosciences (CLS-011L).
The sample size was 30 nl per well; and one destination plate per source plate. The cell suspensions were prepared by transferring 40 mL cells (2×20 mL) to clean 50 mL conical tubes. The cells were concentrated by centrifugation (1200 rpm; 5 mins; ambient temperature). […] The cell plates were incubated for 20 minutes at 37° C., and 5% CO2.
During the incubation, anti-CD3 antibody (αCD3) solutions were prepared by mixing 3 μl αCD3 (1.3 mg/mL) with 10 mL medium [final conc=0.4 μg/mL]. Next, 1.5 μl αCD3 (1.3 mg/mL) was mixed with 0.5 mL medium [final conc=4 μg/mL]. After 20 minutes, 10 μl medium was added to all wells in column 1, wells A to M, and 10 μl αCD3 (4 μg/mL) per well was added in column 1, rows N to P for reference. Then using a multi-channel pipette, 10 μl αCD3 (0.4 μg/mL) per well was added. The αCD3 stimulated +/− compound-treated cells were incubated at 37° C., 5% CO2 for 6 hours.
During this incubation period. Steady-Glo (Promega E2520) reagent was slowly thawed on to ambient temperature. Next, 20 μl Steady-Glo reagent per well was added using a multi-drop Combi-dispenser. […] Samples were characterized by measuring the Relative Light Units (RLU) with an using Envision Plate Reader Instrument on a luminescence protocol.

Structure (SMILES) | IC50 ([1]; detergent/lipid micelle substrate, read-out: DGKα IC50) | IC50 [2] | IC50 ([1]; DGKα IC50, detergent/lipid micelle substrate) | IC50 [3] | IC50 [4] | EC50 [5] | IC50 [6]
COc1ccc(CN2CCN(c3c(C#N)c(=O)n(C)c4ccc(Cl)nc34)CC2)c(O)c1 [Example 301, 6-chloro-4-{4-[(2-hydroxy-4-methoxyphenyl)methyl]piperazin-1-yl}-1-methyl-2-oxo-1,2-dihydro-1,5-naphthyridine-3-carbonitrile] | 0.068 µM | 0.17 µM | – | – | – | – | –
Cn1c(=O)c(C#N)c(N2CCN(Cc3ccc(OC(F)(F)F)cc3O)CC2)c2nc(Cl)ccc21 [Example 381, 6-chloro-4-(4-{[2-hydroxy-4-(trifluoromethoxy)phenyl]methyl}piperazin-1-yl)-1-methyl-2-oxo-1,2-dihydro-1,5-naphthyridine-3-carbonitrile] | – | – | 0.018 µM | 0.7 µM | 0.073 µM | 0.07 µM | 0.19 µM
